The structures appear in SMILES notation.

By UniProt entry, the sequences of proteins in these tests, tags left out.
UniProt P05804, whole entry: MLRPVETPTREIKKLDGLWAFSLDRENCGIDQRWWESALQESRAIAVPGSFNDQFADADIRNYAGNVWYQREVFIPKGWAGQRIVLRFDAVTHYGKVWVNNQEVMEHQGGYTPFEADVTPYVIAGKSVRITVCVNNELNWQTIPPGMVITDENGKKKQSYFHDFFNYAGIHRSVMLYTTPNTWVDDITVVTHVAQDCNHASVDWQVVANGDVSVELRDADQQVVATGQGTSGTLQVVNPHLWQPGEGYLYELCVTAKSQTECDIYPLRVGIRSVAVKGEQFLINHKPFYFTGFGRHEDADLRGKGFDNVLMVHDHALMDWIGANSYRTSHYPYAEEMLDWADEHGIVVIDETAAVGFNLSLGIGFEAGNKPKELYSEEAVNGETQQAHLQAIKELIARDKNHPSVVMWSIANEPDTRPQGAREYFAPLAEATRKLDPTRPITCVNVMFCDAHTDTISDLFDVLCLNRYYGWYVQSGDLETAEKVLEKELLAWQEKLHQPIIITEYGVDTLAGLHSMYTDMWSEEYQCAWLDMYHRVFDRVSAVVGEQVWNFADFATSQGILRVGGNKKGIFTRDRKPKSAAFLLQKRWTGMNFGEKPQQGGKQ

One series deals with β-glucoronidase (Escherichia coli, UniProt P05804). Kind of series: β-Glucuronidase inhibition assay (spectrophotometric, p-nitrophenyl-β-D-glucuronide substrate). Here is the method: β-Glucuronidase inhibition assay protocol: Inhibitory activity of β-Glucuronidase was determined with the help of spectrophotometric method by measuring the absorbance at 405 nm of p-nitro phenol formed from the substrate (p-nitro phenyl-β-D-glucuronide, N1627-250 mg, Sigma Aldrich). The total reaction volume was 250 μL. The compound dissolved in DMSO (100%), which becomes 2% in the ultimate assay (250 μL) and the similar conditions were used for standard (D-saccharin acid 1,4-lactone, Sigma Aldrich). The reaction mixture contained 185 μL of 0.1 M acetate buffer, 5 μL of test compound solution, 10 μL of (1U) enzyme solution (G7396-25KU, Sigma Aldrich) was incubated at 37° C. for 30 min. The plates were read on a multiplate reader (SpectraMax plus 384) at 405 nm after the addition of 50 μL of 0.4 mM p-nitrophenyl-β-D-glucuronide. All assays were performed in triplicate. IC50 Values were calculated by using EZ-Fit software (Perrella Scientific Inc., Amherst, Mass., U.S.A.). These values are the mean of three independent readings.

The subject of series [1] is 3T3 (mouse fibroblast) cells. The method, then:
Cytotoxicity assay Protocol: Cytotoxic activity of compounds was evaluated in 96-well flat-bottomed micro plates by using the standard MTT (3-[4,5-dimethylthiazole-2-yl]-2,5-diphenyl-tetrazolium bromide) colorimetric assay (15). For this purpose, 3T3 (mouse fibroblast) cells were cultured in Dulbecco's Modified Eagle Medium, supplemented with 5% of fetal bovine serum (FBS), 100 IU/ml of penicillin and 100 μg/ml of streptomycin in 75 cm^2 flasks, and kept in 5% CO2 incubator at 37° C. Exponentially growing cells were harvested, counted with haemocytometer and diluted with a particular medium. Cell culture with the concentration of 5×10^4 cells/ml was prepared and introduced (100 μL/well) into 96-well plates.
After overnight incubation, medium was removed and 200 μL of fresh medium was added with different concentrations of compounds (1-30 μM). After 48 hrs, 200 ptL MTT (0.5 mg/ml) was added to each well and incubated further for 4 hrs. Subsequently, 100 μLof DMSO was added to each well. The extent of MTT reduction to formazan within cells was calculated by measuring the absorbance at 540 nm, using a micro plate reader (Spectra Max plus, Molecular Devices, Calif., USA). The cytotoxicity was recorded as concentration causing 50% growth inhibition (IC50) for 3T3 cells. The percent inhibition was calculated by using the following formula […]

In general, IC50 refers to the concentration that inhibits the measured activity by half. The low end stands for higher potency, the high end for lower potency. By % inhibition is commonly meant how much of the control response was suppressed. Low values mean a weak effect, high ones a strong effect. For the compound `Oc1ccc(C(c2c[nH]c3ccc(Br)cc23)c2c[nH]c3ccc(Br)cc23)c(O)c1`, the IC50 against β-glucoronidase (37° C., 30 min incubation, absorbance at 405 nm, mean of three readings) was 1.37 µM; in series [1] it was 10.5 µM. On β-glucoronidase (test concentration not given), the “% inhibition” value amounted to 99.2%.
